{
  "sequences": {"note": "Protein sequences, listed by entry. Tags and fused reporters are not part of them. Residues count along the entry.", "UniProt F1SM15, 1-1104": "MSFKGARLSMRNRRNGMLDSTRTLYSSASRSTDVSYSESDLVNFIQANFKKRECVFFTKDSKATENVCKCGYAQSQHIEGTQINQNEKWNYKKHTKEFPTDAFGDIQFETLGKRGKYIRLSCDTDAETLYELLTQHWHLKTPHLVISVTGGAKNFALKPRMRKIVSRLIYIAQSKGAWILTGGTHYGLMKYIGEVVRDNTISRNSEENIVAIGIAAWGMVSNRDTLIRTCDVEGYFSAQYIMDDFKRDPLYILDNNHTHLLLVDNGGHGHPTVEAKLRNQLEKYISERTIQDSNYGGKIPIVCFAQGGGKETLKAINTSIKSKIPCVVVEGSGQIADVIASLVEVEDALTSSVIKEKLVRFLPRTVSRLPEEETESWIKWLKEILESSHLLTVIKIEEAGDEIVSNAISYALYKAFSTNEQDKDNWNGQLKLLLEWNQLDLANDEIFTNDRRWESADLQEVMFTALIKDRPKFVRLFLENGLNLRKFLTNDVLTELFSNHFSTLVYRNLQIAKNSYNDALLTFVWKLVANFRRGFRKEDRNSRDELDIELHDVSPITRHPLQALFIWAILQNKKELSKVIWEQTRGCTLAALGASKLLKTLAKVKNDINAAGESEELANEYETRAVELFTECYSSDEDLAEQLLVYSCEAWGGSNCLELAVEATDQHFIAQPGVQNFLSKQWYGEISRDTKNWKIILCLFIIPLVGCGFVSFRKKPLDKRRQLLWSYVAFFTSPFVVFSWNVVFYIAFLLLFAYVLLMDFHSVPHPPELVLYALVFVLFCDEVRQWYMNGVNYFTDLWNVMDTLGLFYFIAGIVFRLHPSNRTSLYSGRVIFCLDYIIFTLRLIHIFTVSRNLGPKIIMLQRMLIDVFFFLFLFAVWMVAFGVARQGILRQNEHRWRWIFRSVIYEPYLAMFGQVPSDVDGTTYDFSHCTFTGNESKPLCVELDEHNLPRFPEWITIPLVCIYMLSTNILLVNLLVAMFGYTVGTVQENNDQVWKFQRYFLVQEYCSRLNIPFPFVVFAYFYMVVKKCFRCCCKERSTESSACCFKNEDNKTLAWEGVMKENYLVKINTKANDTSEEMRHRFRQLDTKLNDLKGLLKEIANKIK"},
  "source": "patent US20240124408A1",
  "about": "(Sanofi, priority 2020, published 2024)",
  "key": {"pig TRPM8": {"target": "pig TRPM8 (Sus scrofa, UniProt F1SM15)", "test": "In vitro pig TRPM8 fluorescence calcium flux assay (recombinant CHO cells, Fluo4-AM, FDSS6000)", "conditions": "read-out: Pig TRPM8 Calcium Flux EC50; recombinant CHO cells expressing pig TRPM8; menthol-related EC50, normalized to 100 μM menthol", "description": "(§1) In Vitro Pig and Human TRPM8 Fluorescence Calcium Flux Assays\n(§2) For functional expression of TRPM8, the full-length cDNA encoding human (NM_024080) and pig (XM_001927892.1) TRPM8 sequences were subcloned into p658 and pcDNA5/FRT/TO mammalian expression vectors, respectively. Engineered recombinant CHO cell lines expressing human or pig TRPM8 were generated. Culture media was Ham-F12 with 10% FCS for both lines, and for the pig cell line only 400 μg/ml hygromycin B and 30 μg/mL blasticidin were added as selection antibiotics (all reagents were obtained from Invitrogen, Fisher Scientific). […]\n(§3) For calcium flux assays, cells were plated into clear base poly-D-lysine coated 384-well plates (BD Biosciences, NJ USA) at a density of 15,000 cells per well in appropriate culture medium and grown overnight. […] Following incubation, plates were inserted into a FDSS6000 instrument (Hamamatsu, Photonics, Japan) instrument, where cells were challenged with compounds of the formula (at varying concentrations) and intracellular calcium was measured kinetically for 3 min after addition.\n(§4) This protocol allowed the determination of an EC50 value, from the sixteen-point dose response data, for each compound of the formula tested. […] The dose response curves from the average of wells for each data point were analyzed by using nonlinear regression of sigmoidal dose response (formula 205). […]"}, "human TRPM8": {"target": "human TRPM8 (Homo sapiens, UniProt Q7Z2W7)", "test": "In vitro human TRPM8 fluorescence calcium flux assay (recombinant CHO cells, Fluo4-AM, FDSS6000)", "conditions": "read-out: Human TRPM8 Calcium Flux EC50; recombinant CHO cells expressing human TRPM8; menthol-related EC50, normalized to 100 μM menthol", "description": "as §1, §2, §3, §4"}},
  "data": [
    {"smiles": "CC(C)[C@@H]1CC[C@@H](C)C[C@@]1(O)C(=O)NCCc1cccc(CC(=O)O)c1", "values": [
      {"measurement": "EC50", "setting": "pig TRPM8", "value": 327, "unit": "nM"},
      {"measurement": "EC50", "setting": "human TRPM8", "value": 575, "unit": "nM"}
    ]}
  ]
}
